Measured affinities in a library of Ab-14 light chain variants

Values reported by Li et al. 2023, doi:10.1038/s41467-023-39022-2 (FLAb copy).

All variants were tested on one target, the spike HR2 peptide PDVDLGDISGINAS (SARS-CoV-2).

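These sequences belong to a second round, designed from the earlier measurements on random variants of the parent. Their group label is 14L_GP_HC (GP: Gaussian process model; HC: hill climbing; a sequence that several methods proposed may carry one label only). Affinity was read by AlphaSeq, a pooled yeast mating assay with surface-displayed partners. Pairs that bind mate more often; barcode pairs of the diploids are counted by sequencing. A regression on co-assayed BCL2-family reference pairs converts the normalised counts of each replicate to an apparent Kd. Each pool was mated in six replicate cultures.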

The variants keep the heavy chain, the linker and the frameworks of Ab-14 (scFv order VH, a 15-residue (Gly4Ser)3 linker, VL).
VH: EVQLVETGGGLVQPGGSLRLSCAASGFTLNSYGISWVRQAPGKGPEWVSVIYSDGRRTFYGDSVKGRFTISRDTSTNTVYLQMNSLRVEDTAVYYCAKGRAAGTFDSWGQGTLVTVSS
VL: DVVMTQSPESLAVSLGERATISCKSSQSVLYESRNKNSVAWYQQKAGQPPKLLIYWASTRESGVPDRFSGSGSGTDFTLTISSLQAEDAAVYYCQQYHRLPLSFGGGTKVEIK

Substitutions are numbered in sequence along the VL above, starting at 1 (not Kabat).
Scale: log10 of Kd in nM, estimated from mating counts; low values are strong binders.
A mean of the replicates is given; it leaves out those without a signal.
"nd" marks a missing value. The strain was present, yet no cells mated with the target were sequenced in that replicate, which points to weak or no binding.
Background: pairings of all light chain designs with three empty control strains gave a value in 4% of cases (median 2.64, 5th percentile 1.59). Values in that range, when seen in few replicates, are hard to tell from nonspecific mating. Also given: how often the same scFv was detected with the empty control strains.
A sequence measured in both rounds can read differently, since the two assays cover different ranges.
The authors averaged sequences with at least three values out of six and counted those with two or fewer as poor binders.
The parent sequence was in this pool as ten entries: three were never detected, three once, and four in most replicates, with averages from 0.34 to 2.37.

The variant S25L Q27W Y31F W56N gave 0.05, -0.14, -0.19, -0.27, -0.05, -0.14 (mean -0.12; controls 2 of 18).
The variant S25Q Q27G S28E V29K W56D gave 0.11, -0.34, -0.14, 0.00, 0.02, -0.03 (mean -0.06; controls 2 of 18).
The variant S25L S26M S28Q V29T S33T S62E gave 0.97, 0.47, 0.70, 0.65, 1.06, 0.92 (mean 0.79; controls 0 of 18).
The variant Q27I V29E W56E S103M gave 0.21, -0.04, -0.17, -0.21, -0.03, 0.08 (mean -0.03; controls 3 of 18).
The variant S26Q S38N W56N S62D H98A gave -0.10, 0.02, -0.02, -0.54, -0.04, 0.02 (mean -0.11; controls 0 of 18).
The variant V29F W56G Q96A gave 2.01, 1.48, nd, 1.75, 1.35, 1.87 (mean 1.69; controls 0 of 18).
The variant K24H L30K Y31F W56D gave nd, nd, nd, nd, nd, nd (controls 0 of 18).
The variant S25V S26P W56H S62D Q96S S103Y gave 0.87, 0.70, 0.44, 0.53, 0.68, 0.84 (mean 0.67; controls 3 of 18).
The variant Q27P L30H R34H W56N E61M gave 0.66, 0.49, 0.54, 0.56, 0.53, 0.81 (mean 0.60; controls 2 of 18).
The variant S25Y S26Y Q27P V29Y S38A W56Q gave 1.31, 2.02, 0.94, 1.04, 1.24, 1.37 (mean 1.32; controls 1 of 18).
The variant S25Q S28E V29H W56D gave -0.34, -0.21, -0.51, -0.36, -0.42, -0.06 (mean -0.31; controls 0 of 18).
The variant S25A S26Y Q27P V29Y W56Q R99L gave 0.11, 0.19, 0.24, 0.08, -0.17, 0.58 (mean 0.17; controls 0 of 18).
The variant S25Q Q27E S38A W56D gave -0.19, -0.57, -0.33, -0.55, -0.35, -0.31 (mean -0.38; controls 1 of 18).
The variant Q27I V29Y K36H W56E S62Q gave 0.21, 0.12, -0.15, 0.04, 0.27, 0.12 (mean 0.10; controls 1 of 18).
The variant S26L Q27G V29W W56H S62Q gave 1.39, 1.09, 0.55, 0.47, 1.46, 1.18 (mean 1.02; controls 0 of 18).
The variant S26G Q27C S28G V29D W56G gave nd, nd, 2.14, nd, nd, nd (controls 0 of 18).
The variant S25T S26G S28G W56G T59E gave -0.39, -0.60, -0.68, -0.64, -0.78, -0.44 (mean -0.59; controls 0 of 18).
The variant V29M R34G W56H gave 0.20, -0.04, 0.18, 0.09, -0.15, 0.04 (mean 0.05; controls 1 of 18).
The variant S25Q W56D E61Y gave -1.20, -0.36, -0.94, -0.32, -1.27, -0.74 (mean -0.81; controls 0 of 18).
The variant K36F W56G gave 0.59, 0.41, 0.25, 0.21, 0.34, 0.37 (mean 0.36; controls 1 of 18).
The variant S25M S26E S28G W56G T59V gave -0.16, -0.29, -0.36, -0.47, -0.56, -0.34 (mean -0.37; controls 0 of 18).
The variant Q27I V29F K36E W56E S62Q gave 1.15, 0.60, 1.58, 0.53, 0.88, 1.14 (mean 0.98; controls 0 of 18).
The variant S25F N35L S38G W56N gave 0.38, 0.05, 0.09, 0.05, -0.04, 0.22 (mean 0.12; controls 4 of 18).
The variant Y31D E32Q W56D T59Q gave 0.16, 0.18, -0.12, -0.32, 0.12, 0.19 (mean 0.04; controls 1 of 18).
The variant S26Q Q27I V29Q L30E W56H S62D gave 0.86, 0.65, 0.91, 1.02, 0.95, 1.15 (mean 0.92; controls 0 of 18).
The variant V29E R34V W56H gave 0.55, 0.60, 0.51, 0.10, 0.12, 0.25 (mean 0.35; controls 0 of 18).
The variant S25W S28A V29F W56D S58N gave -0.02, -0.21, 0.11, -0.16, -0.33, -0.10 (mean -0.12; controls 0 of 18).
The variant S26L S28K V29W W56H S62Q gave 1.14, 2.28, 1.31, 1.78, 1.95, 1.95 (mean 1.73; controls 1 of 18).
The variant S25F Q27I V29Y Y31E W56E gave 0.19, 0.02, 0.03, -0.18, 0.14, 0.26 (mean 0.08; controls 2 of 18).
The variant Q27I V29F W56E S62E gave 0.24, 0.13, -0.18, -0.04, -0.10, 0.02 (mean 0.01; controls 0 of 18).
The variant S25F N35T K36S S38M W56N gave 0.59, 0.34, 0.20, 0.56, 0.47, 0.40 (mean 0.43; controls 3 of 18).
The variant K24L Q27I V29Y L30P R34P W56E gave 1.44, 0.70, 0.32, 0.90, 0.30, 0.70 (mean 0.73; controls 0 of 18).
The variant Q27I V29Y Y31G S33K R34V W56E gave -0.10, -0.30, 0.35, -0.46, -0.15, -0.22 (mean -0.15; controls 2 of 18).
The variant S25F Q27D Y31L W56N gave 0.16, -0.02, -0.02, -0.20, -0.09, 0.21 (mean 0.01; controls 0 of 18).
The variant S25F Q27D Y31L N35T K36V W56N gave 0.30, 0.07, 0.18, -0.14, 0.32, 0.33 (mean 0.18; controls 1 of 18).
The variant S25L S26D V29C W56G gave -0.32, 0.00, -0.33, -0.50, -0.20, -0.22 (mean -0.26; controls 0 of 18).
The variant S25L S26Q S28Q V29W L30E W56S S62E gave 0.48, 0.26, 0.24, 0.10, 0.44, 0.24 (mean 0.29; controls 0 of 18).
The variant S25Q Y31G S33W W56D gave 0.25, 0.32, 0.36, 0.31, 0.06, 0.27 (mean 0.26; controls 0 of 18).
The variant S25I S26L W56H S62D R99Q gave -0.11, 0.20, 0.18, 0.43, 0.17, 0.54 (mean 0.23; controls 0 of 18).
The variant S26D S28G V29A L30D W56G gave 0.00, -0.04, -0.24, -0.31, -0.22, -0.11 (mean -0.15; controls 1 of 18).
The variant K24Y V29W W56G gave 0.03, -0.07, -0.13, -0.36, -0.17, -0.02 (mean -0.12; controls 1 of 18).
The variant S25L V29D N35V W56E gave 0.66, 0.43, 0.33, 0.43, 0.45, 0.47 (mean 0.46; controls 1 of 18).
The variant Q27W V29D W56D gave -0.22, -0.42, -0.48, -0.39, -0.38, -0.31 (mean -0.37; controls 0 of 18).
The variant K24H Q27P L30Y Y31M W56N gave 0.53, 0.25, 0.51, 0.40, 0.67, 1.09 (mean 0.58; controls 0 of 18).
The variant Q27I V29Y Y31T W56E gave -0.18, -0.12, -0.26, -0.11, -0.33, -0.13 (mean -0.19; controls 1 of 18).
The variant Q27F L30K Y31F W56D gave 0.41, 0.57, 0.41, 0.41, 0.60, 1.08 (mean 0.58; controls 0 of 18).
The variant Q27P S28V L30E R34E W56N E61M gave 0.63, 0.27, 0.52, 0.23, 0.47, 0.49 (mean 0.43; controls 2 of 18).
The variant K24S S25L S26M W56H T59D S62D gave 0.49, 0.41, 0.86, 0.47, 0.68, 0.50 (mean 0.57; controls 0 of 18).
The variant V29W S38N W56G T59F gave -0.35, -0.35, -0.42, -0.42, -0.30, -0.37 (mean -0.37; controls 2 of 18).
The variant K24D S25F S26E V29W W56G gave -0.23, -0.49, -0.92, -0.71, -0.25, -0.46 (mean -0.51; controls 0 of 18).
The variant K24S S25F S33P N35T W56N gave nd, -1.32, -0.25, -0.25, -0.90, 0.50 (mean -0.44; controls 0 of 18).

The last 5 entries again:

{"changes": "Q27P S28V L30E R34E W56N E61M", "replicates, log10 nM": "0.63, 0.27, 0.52, 0.23, 0.47, 0.49", "mean log10 Kd (nM)": "0.43", "empty controls": "2 of 18"}
{"changes": "K24S S25L S26M W56H T59D S62D", "replicates, log10 nM": "0.49, 0.41, 0.86, 0.47, 0.68, 0.50", "mean log10 Kd (nM)": "0.57", "empty controls": "0 of 18"}
{"changes": "V29W S38N W56G T59F", "replicates, log10 nM": "-0.35, -0.35, -0.42, -0.42, -0.30, -0.37", "mean log10 Kd (nM)": "-0.37", "empty controls": "2 of 18"}
{"changes": "K24D S25F S26E V29W W56G", "replicates, log10 nM": "-0.23, -0.49, -0.92, -0.71, -0.25, -0.46", "mean log10 Kd (nM)": "-0.51", "empty controls": "0 of 18"}
{"changes": "K24S S25F S33P N35T W56N", "replicates, log10 nM": "nd, -1.32, -0.25, -0.25, -0.90, 0.50", "mean log10 Kd (nM)": "-0.44", "empty controls": "0 of 18"}